Our source for the activation values is PubChem BioAssay AID624172 (National Center for Advancing Translational Sciences (NCATS), 2012).

By UniProt entry, the sequences of proteins in these tests, tags left out.
UniProt P43220, whole entry, looked up: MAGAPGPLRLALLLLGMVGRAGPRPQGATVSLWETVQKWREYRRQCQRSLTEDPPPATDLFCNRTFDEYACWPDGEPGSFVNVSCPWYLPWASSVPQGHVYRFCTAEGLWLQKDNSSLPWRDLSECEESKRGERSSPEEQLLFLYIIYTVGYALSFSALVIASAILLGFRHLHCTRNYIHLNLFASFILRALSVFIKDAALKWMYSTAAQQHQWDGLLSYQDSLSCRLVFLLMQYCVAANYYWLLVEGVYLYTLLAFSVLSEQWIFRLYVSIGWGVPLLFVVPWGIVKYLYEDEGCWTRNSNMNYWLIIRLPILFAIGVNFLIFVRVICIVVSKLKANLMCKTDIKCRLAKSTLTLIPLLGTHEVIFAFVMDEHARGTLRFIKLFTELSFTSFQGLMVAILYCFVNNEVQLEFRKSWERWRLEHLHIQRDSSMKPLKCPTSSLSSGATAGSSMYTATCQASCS

SMILES strings stand for the structures. “And” between values parts separate entries of the source, which are not always exact repeats. Equal entries are not always repeated. Only a part is listed here, and it is no random draw. The source made the active and inactive calls. Calls come from the whole dose curve; as a rule, active = well fitted activation curve with a large enough effect; inconclusive = small, poorly fitted or top-dose-only effect; inactive = no such curve, though single readings can be large or run the other way.

The experiment has as its target Glucagon-like peptide 1 receptor (Homo sapiens) (UniProt P43220). Nature of the experiment: qHTS of GLP-1 Receptor Agonists. Note: % of control where 0% means no effect. The conditions noted are these: HEK293 GLP-1R CRE-luciferase, luminescence, 4-6 h, cells express a hypersensitive GLP-1R form; at 45.6 µM (top of the series) unless noted. From the text:
The overall goal of this project was to develop a novel assay for discovering small molecule ligands for class B1 G protein-coupled receptors (GPCRs). Very few agonists (or inverse agonists) with generally weak activity for this entire group of physiologically important receptors are known to date. To establish proof-of-principle that this critical bottleneck can be overcome with a suitable screening approach, our studies focused on the class B1 receptor for glucagon-like peptide-1 (GLP-1R), a potential therapeutic target for diabetes and neurodegenerative disease.
The assay was developed in a "mix and measure" format using a cell-based functional readout. Toward this goal, stably transfected HEK293 cell clones were established that co-express (i) a cAMP-responsive luciferase reporter gene, and (ii) GLP-1Rs that upon ligand interaction either stimulate (agonists) or inhibit (inverse agonists) luciferase activity. In different cell lines to be used for screening, expressed GLP-1Rs are specifically optimized for high sensitivity detection of either weak agonists (hypersensitive receptor) or inverse agonists (constitutively active receptor mutant). In addition, control cell lines were developed that express either the cAMP-responsive reporter gene without recombinant GLP-1Rs (enabling initial exclusion of GLP-1R independent effects of candidate probes), or the reporter gene together with wild type GLP-1Rs (for confirmation of probe activity at this receptor), or the reporter gene in combination with the constitutively active orphan receptor GPR119 (enabling initial exclusion of GLP-1R independent inhibitory effects of candidate inverse agonists).
To that end, this assay was optimized for 1536-well format and screened against the MLSMR.
NIH Molecular Libraries Probe Production Network [MLPCN]
NIH Chemical Genomics Center [NCGC]
PI Name: Martin Beinborn, Tufts Medical Center
In a white solid 1536-well plate, 6 uL of cells are dispensed in DMEM without phenol red, 10% Nu serum, and 1% pen-strep medium. The plates are then incubated for 12 hours at 37 deg C at 5% CO2 before 23 nL of compounds are added. After a 4-6 hr incubation at37 deg C and 5% CO2, 3 uL of detection reagent are added and after a 12 min incubation at RT, a luminescent read is obtained on the ViewLux.
In general terms: Quantitative high-throughput screening tests each substance at several concentrations.
For `CCN(N=Nc1nonc1N)c1nonc1N`, the activation is inactive: 1.05%.
In the case of `Nc1cccc2ccc([As](=O)(O)O)cc12` it was inactive: -0.531%; in that of `CCCC1OP(N)(=O)OCC1CC` (stereo not drawn), inactive: 1.16%; in that of `O=C(O)c1ccccc1[As](=O)(O)O`, inactive: 5.95%.
Turning to `CC(=O)Nc1ccc([As](=O)(O)O)cc1`, the activation is inactive: 0.494%.
As for `CN(C)P(=O)(N(C)C)n1c(Nc2ccccc2)nnc1-c1ccccc1`, the activation is inactive: 2.71%.
The result for `O=P(Nc1nc2ccc(Cl)cc2s1)(c1ccccc1)c1ccccc1` reads inactive: 2.25%; that for `CN(C(=O)Cc1ccc(Cl)c(Cl)c1)[C@H]1CCCC[C@@H]1N1CCCC1`, inactive: 12.3%.
The result for `Cc1ccc(NP(=O)(Oc2ccccc2F)Oc2ccccc2F)nc1` reads inactive: 0.423%; that for `CCOP(=O)(Nc1ccccc1)OCC`, inactive: 3.47%; that for `Cc1cc(SC(NC(=O)c2ccc(F)cc2)C(Cl)(Cl)Cl)ncn1` (stereo not drawn), inactive: -13%.
The result for `CC(C)CC(=O)NC(Sc1ccc(Cl)cc1)C(Cl)(Cl)Cl` (stereo not drawn) reads inactive: -4.98%; that for `Nc1cc(N)c2nonc2c1[N+](=O)[O-]`, inactive: -4.69%.
For the molecule `O=C(NC(Sc1ccncn1)C(Cl)(Cl)Cl)c1ccccc1` (stereo not drawn), the activation was inactive: -6.22%.
On to `Oc1ccccc1CNc1ccccn1`, for which the activation is inactive: 11.4%.
The result for `O=[N+]([O-])C1C(O)C(O)C([N+](=O)[O-])C(O)C1O` (stereo not drawn) reads inactive: -1.7%; that for `NC(=O)c1cc([N+](=O)[O-])cc([N+](=O)[O-])c1N`, inactive: -7.16%.
Regarding `Cc1ccc(N/C(=N/P(=O)(N2CCOCC2)N2CCOCC2)N2CCOCC2)cc1`, the activation is inactive: -1.04%.
Consider `CN(C(=O)Cc1ccc(Cl)c(Cl)c1)[C@H]1CCCC[C@H]1N1CCCC1`, for which the activation was inactive: 4.33%.
For the molecule `Cc1ccc(OP(=O)(Nc2nccs2)Oc2ccc(C)cc2)cc1`, the activation is inactive: -0.788%.
The result for `COc1ccccc1OP(=O)(Nc1ccc(C)cn1)Oc1ccccc1OC` reads inactive: 11.4%.
With `Clc1ccc(Cl)c(NC2=NCC(CBr)S2)c1` (stereo not drawn), the activation was inactive: -2.21%.
On to `CN1CCCC(OC(=O)C(c2ccccc2)c2ccccc2)C1` (stereo not drawn), for which the activation was inactive: 4.29%.
With `C[N+]1=C2C=CC=CC=C2SC12C([N+](=O)[O-])=CC([N+](=O)[O-])=C[C-]2[N+](=O)[O-]` (stereo not drawn), the activation was inactive: -9.05%.
The result for `Nc1ccc([As](=O)(O)c2ccc(N)cc2)cc1` reads inactive: -0.278%; that for `CCN(/C(=N/P(=O)(N1CCOCC1)N1CCOCC1)N1CCOCC1)c1ccc(OC)cc1`, inactive: 0.774%; that for `CN(C)C(=O)OCCc1n(C)cc[n+]1C`, inactive: 0.281%.
In the case of `CC(C)=N/N=C(\N)N[N+](=O)[O-]`, the activation was inactive: 6.59%.
Turning to `CC(C)c1nc(Nc2ccccc2)n(P(=O)(N(C)C)N(C)C)n1`, the activation was inactive: -1.8%.
On to `c1cc(-c2nn[nH]n2)ccc1-c1nn[nH]n1`, for which the activation is inactive: 0.66%.
The result for `CC1CCN(C(=O)Oc2c(Cl)cc(Cl)c3cccnc23)CC1` reads inactive: 15.1%; that for `COc1ccc(C2=NCC(CBr)S2)cc1` (stereo not drawn), inactive: 0.041%.
The result for `CC(=O)N1C2C3N(C(C)=O)C1C1N(C(C)=O)C(C(N1C(C)=O)N3C(C)=O)N2C(C)=O` reads inactive: -2.02%.
In the case of `O=[N+]([O-])c1cccc2n[nH]nc12` it was inactive: 2.22%.
As for `O=[N+]([O-])c1cc([N+](=O)[O-])c(CCNc2ccccc2)c([N+](=O)[O-])c1`, the activation was inactive: 7.1%.
The result for `CCc1nc2c(n1)c1c(non1O)c1c2no[n+]1[O-]` reads inactive: 3.43%; that for `Cc1ccc(NP(=O)(Oc2ccccc2)Oc2ccccc2)nc1`, inactive: 8.88%.
Turning to `CC(C)(C)C(=O)NC(Sc1ccncn1)C(Cl)(Cl)Cl` (stereo not drawn), the activation is inactive: -5.1%.
In the case of `O=[N+]([O-])c1ncn(CCn2ncnc2[N+](=O)[O-])n1` it was inactive: -5.66%; in that of `O=[N+]([O-])c1cccc(NC2=NCC(CBr)S2)c1` (stereo not drawn), inactive: -3%.
In the case of `COC(=O)C1(C)COP(=O)(Nc2ccccc2)OC1` (stereo not drawn), the activation is inactive: -2.19%.
The result for `O=C(O)CNc1ccc([As](=O)(O)O)cc1` reads inactive: -2.59%; that for `O=P1(N(CCCl)CCCl)OCCCS1` (stereo not drawn), inactive: -0.362%; that for `O=C(Nc1cc([As](=O)(O)O)ccc1O)c1ccccc1`, inactive: -0.119%.
Take `CC(=O)NC(SC(=S)N(C)C)C(Cl)(Cl)Cl` (stereo not drawn): the activation was inactive: -1.5%.
In the case of `O=[N+]([O-])c1ncn(CCn2cnc([N+](=O)[O-])n2)n1` it was inactive: 1.6%.
`O=[N+]([O-])c1ccc(O)c(/C=N/Nc2ccc([N+](=O)[O-])cc2[N+](=O)[O-])c1`: the activation was inactive: 7.69%.
The result for `O=[As](O)(c1ccccc1)c1ccc(O)cc1` reads inactive: 7.29%.
In the case of `Nc1ccc([As](=O)(O)c2ccc([N+](=O)[O-])cc2)cc1` it was inactive: -0.439%.
In the case of `C(Cc1nn[nH]n1)Cc1nn[nH]n1` it was inactive: -12.7%; in that of `O=C(OC1CN2CCC1CC2)c1cccc(Cl)c1` (stereo not drawn), inactive: -2.01%.
Take `Nc1ccc(CCCCOc2ccccc2)cc1`: the activation is inactive: 21.1%.
As for `COc1ccc(N)c([N+](=O)[O-])c1[N+](=O)[O-]`, the activation is inactive: 12.5%.
Regarding `CN(C)C1(CNC(=O)c2ccc(Cl)c(S(N)(=O)=O)c2)CCCCC1`, the activation is inactive: 3.52%.
In the case of `O=P(Nc1ccccn1)(c1ccc(Br)cc1)c1ccc(Br)cc1` it was inactive: 3.69%; in that of `C[C@H]1OP(=O)(Oc2ccccc2)[C@H](O)[C@H](O)[C@H]1N=[N+]=[N-]` (stereo partly drawn), inactive: 4.57%; in that of `O=P(Nc1nc2ccccc2s1)(c1ccccc1)c1ccccc1`, inactive: 10.4%.
The result for `CN(C(=O)Cc1ccccc1)[C@H]1CC[C@@]2(CCCO2)C[C@@H]1N1CCCC1` reads inactive: 6.3%.
The result for `Cc1cc([N+](=O)[O-])cc([N+](=O)[O-])c1O` reads inactive: -1.23% [at 96 µM]; that for `O=P(Nc1nccs1)(c1ccccc1)c1ccccc1`, inactive: 0.45%; that for `CC(C)C(=O)NC(Sc1ccccc1)C(Cl)(Cl)Cl` (stereo not drawn), inactive: 1.44%.
As to `c1nnnn1CCn1cnnn1`, the activation is inactive: -0.4%.
In the case of `COC(=O)C1(C)COP(=O)(NCc2ccccc2)OC1` (stereo not drawn) it was inactive: -8.46%.
Consider `N#C/C(=C\c1ccc(N(CCBr)CCBr)cc1)C(N)=O`, for which the activation was inactive: 13.9%.
Take `CC(=O)c1ccc(N2CC2c2ccncc2)cc1` (stereo not drawn): the activation was inactive: 5.56%.
For the molecule `C[C@@H]1C=CCP(=O)(Oc2ccccc2)O1` (stereo partly drawn), the activation is inactive: -2.71%.
For the molecule `C[C@H]1OP(=O)(Oc2ccccc2)C[C@@H]2O[C@@H]21` (stereo partly drawn), the activation was inactive: -1.43%.
Consider `Cc1ccccc1CN(C)C(=O)COC(=O)C(O)(c1ccccc1)c1ccccc1`, for which the activation is inactive: -1.04%.
As to `CC(=O)Nc1ccc(Oc2c([N+](=O)[O-])cc([N+](=O)[O-])cc2[N+](=O)[O-])cc1`, the activation was inactive: -0.187%.
The result for `CC(=O)Nc1ccc([As](=O)(O)O)c(O)c1` reads inactive: -0.172%; that for `CCOc1ccc(C2=NCC(CBr)S2)cc1` (stereo not drawn), inactive: -1.38%; that for `O=P1(Nc2nc3ccc(Cl)cc3s2)COc2ccccc2O1` (stereo not drawn), inactive: 10.3%.
For the molecule `CCc1cc(O)c([N+](=O)[O-])c(C)c1[N+](=O)[O-]`, the activation was inactive: 0.127%.
The result for `CC(C)(C)C(=O)NC(Sc1ccccc1)C(Cl)(Cl)Cl` (stereo not drawn) reads inactive: 12.8%.
The result for `CC(=O)NC(SC(=S)N(CC(C)C)CC(C)C)C(Cl)(Cl)Cl` (stereo not drawn) reads inactive: -2.81%.
With `Cc1ccc(OP(=O)(Nc2ccccn2)Oc2ccc(C)cc2)cc1`, the activation was inactive: 17.2%.
For the molecule `COC(=O)c1cc2c(s1)N=C(c1ccccc1)N(C)P2(=O)N1CCOCC1` (stereo not drawn), the activation was inactive: -13.6%.
`CCC(=O)N1C2C3N(C(=O)CC)C1C1N(C(=O)CC)C(C(N1C(=O)CC)N3C(=O)CC)N2C(=O)CC`: the activation is inactive: -11.4%.
In the case of `O=C(OC1CN2CCC1CC2)c1ccccc1` (stereo not drawn) it was inactive: 2.67% and inactive: -2.02%.
In the case of `CN(C)C(=O)Oc1noc2ccccc12`, the activation was inactive: 5.58%.
The result for `O=c1c2cc([N+](=O)[O-])ccc2[nH]c2c([N+](=O)[O-])cc([N+](=O)[O-])cc12` reads inactive: -3.6%.
The result for `Cc1ccccc1OP(=O)(Nc1ccccn1)Oc1ccccc1C` reads inactive: 0.155%.
On to `CC(NC(=O)COC(=O)C(O)(c1ccccc1)c1ccccc1)c1ccccc1` (stereo not drawn), for which the activation is inactive: -0.25%.
For the molecule `O=C(NC1CCS(=O)(=O)C1)NP(=S)(Oc1ccccc1)Oc1ccccc1` (stereo not drawn), the activation is inactive: 0.166%.
The result for `CCNC(=S)/N=C(\N)N[N+](=O)[O-]` reads inactive: 0.0389%; that for `Cc1ccc(NP(=O)(Oc2cccc(C)c2)Oc2cccc(C)c2)nc1`, inactive: 7.26%; that for `c1ccc(-c2nn[nH]n2)c(-c2nn[nH]n2)c1`, inactive: -0.307%.
In the case of `O=P1(N(CCCl)CCCl)OCCC2CCCCN21` (stereo not drawn) it was inactive: -0.155%; in that of `NC(=O)Nc1ccc([As](=O)(O)O)cc1`, inactive: 1.97% and inactive: -2.04%; in that of `CN(C(=O)Cc1ccc(Cl)c(Cl)c1)[C@H]1CC[C@@]2(CCCO2)C[C@@H]1N1CCCC1`, inactive: 5.11%.
The result for `CN(C)C(=O)c1cc([N+](=O)[O-])cc2c1-c1c(cc([N+](=O)[O-])cc1[N+](=O)[O-])C2=O` reads inactive: 8.11%.
For the molecule `O=[N+]([O-])c1ccc2c(c1)nnn2O`, the activation is inactive: 3.03%.
In the case of `CN(C(=O)Cc1ccccc1)[C@@H]1CC[C@]2(CCCO2)C[C@H]1N1CCCC1` it was inactive: -4.38%; in that of `CCOP1(=S)c2c(C)nn(CCC#N)c2N=C(c2ccc(F)cc2)N1C` (stereo not drawn), inactive: 5.48%.
`N#CCCN(C(=O)COC(=O)C(O)(c1ccccc1)c1ccccc1)c1ccc(F)cc1`: the activation is inactive: 2.12%.
In the case of `CS(=O)(=O)c1cc([N+](=O)[O-])c2no[n+]([O-])c2c1` it was inactive: -0.481%.
In the case of `O=P(Nc1nccs1)(c1ccccc1)c1nc2ccccc2s1` (stereo not drawn) it was inactive: 10.5%; in that of `O=P(Nc1nccs1)(Oc1ccccc1)Oc1ccccc1`, inactive: 0.199%.
